Measured values as given in BindingDB's records for doi:10.1016/s0960-894x(03)00634-6 (Kyowa Hakko Kogyo, 2003).

Amino acid sequences for entries named in this document (tags omitted).
UniProt P09619, whole entry: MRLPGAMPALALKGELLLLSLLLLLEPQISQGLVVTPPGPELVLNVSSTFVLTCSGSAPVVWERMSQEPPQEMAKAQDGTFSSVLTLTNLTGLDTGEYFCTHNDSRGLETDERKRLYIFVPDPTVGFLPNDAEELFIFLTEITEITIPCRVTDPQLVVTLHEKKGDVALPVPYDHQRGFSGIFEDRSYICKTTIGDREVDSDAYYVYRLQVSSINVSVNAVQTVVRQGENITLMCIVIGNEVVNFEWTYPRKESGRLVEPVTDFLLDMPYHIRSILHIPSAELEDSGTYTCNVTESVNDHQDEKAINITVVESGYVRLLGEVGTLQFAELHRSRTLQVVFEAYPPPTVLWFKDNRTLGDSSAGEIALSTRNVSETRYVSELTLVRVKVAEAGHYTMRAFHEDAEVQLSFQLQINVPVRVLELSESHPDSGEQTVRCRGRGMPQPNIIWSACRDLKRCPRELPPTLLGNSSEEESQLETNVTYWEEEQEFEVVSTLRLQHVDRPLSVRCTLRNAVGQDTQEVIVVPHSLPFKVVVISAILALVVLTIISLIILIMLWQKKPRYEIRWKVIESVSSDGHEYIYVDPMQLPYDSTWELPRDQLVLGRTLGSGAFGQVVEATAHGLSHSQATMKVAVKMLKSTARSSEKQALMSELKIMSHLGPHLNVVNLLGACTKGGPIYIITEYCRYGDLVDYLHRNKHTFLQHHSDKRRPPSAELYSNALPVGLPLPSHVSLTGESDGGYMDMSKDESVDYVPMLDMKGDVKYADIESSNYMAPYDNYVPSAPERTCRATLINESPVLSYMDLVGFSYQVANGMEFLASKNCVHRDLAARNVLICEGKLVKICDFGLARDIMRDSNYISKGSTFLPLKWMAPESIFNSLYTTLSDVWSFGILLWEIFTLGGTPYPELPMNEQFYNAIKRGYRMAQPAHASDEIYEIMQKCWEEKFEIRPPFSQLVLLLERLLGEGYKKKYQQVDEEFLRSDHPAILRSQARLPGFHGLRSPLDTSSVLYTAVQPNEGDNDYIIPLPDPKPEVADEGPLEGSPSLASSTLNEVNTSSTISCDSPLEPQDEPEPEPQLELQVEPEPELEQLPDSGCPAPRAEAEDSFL

Molecular target: Platelet-derived growth factor receptor beta (Homo sapiens, UniProt P09619)
Test: ChEBML_158518

Row | SMILES | IC50
1 | COc1ccc2c(N3CCN(C(=O)Nc4ccc(Oc5ccccc5)cc4)CC3)ncnc2c1OC [4-(7,8-Dimethoxy-quinazolin-4-yl)-piperazine-1-carboxylic acid (4-phenoxy-phenyl)-amide] | > 30 µM
2 | COc1cc2nc(C)nc(N3CCN(C(=O)Nc4ccc(Oc5ccccc5)cc4)CC3)c2cc1OC [4-(6,7-Dimethoxy-2-methyl-quinazolin-4-yl)-piperazine-1-carboxylic acid (4-phenoxy-phenyl)-amide] | > 30 µM
3 | S=C(NCc1ccccc1)N1CCN(c2ncnc3ccccc23)CC1 [4-Quinazolin-4-yl-piperazine-1-carbothioic acid benzylamide] | > 30 µM
4 | COc1cc2nc(N3CCOCC3)nc(N3CCN(C(=O)Nc4ccc(Oc5ccccc5)cc4)CC3)c2cc1OC [4-(6,7-Dimethoxy-2-morpholin-4-yl-quinazolin-4-yl)-piperazine-1-carboxylic acid (4-phenoxy-phenyl)-amide] | > 30 µM

More lines, now with the values ahead:

Row | IC50 | SMILES
5 | > 30 µM | COc1cc2nc(Cl)nc(N3CCN(C(=O)Nc4ccc(Oc5ccccc5)cc4)CC3)c2cc1OC [4-(2-Chloro-6,7-dimethoxy-quinazolin-4-yl)-piperazine-1-carboxylic acid (4-phenoxy-phenyl)-amide]
6 | > 30 µM | CCNc1cc2ncnc(N3CCN(C(=S)NCc4ccccc4)CC3)c2cc1[N+](=O)[O-] [4-(7-Ethylamino-6-nitro-quinazolin-4-yl)-piperazine-1-carbothioic acid benzylamide]
7 | > 30 µM | COc1cc2c(N3CCN(C(=O)Nc4ccc(Oc5ccccc5)cc4)CC3)ncnc2c(OC)c1OC [4-(6,7,8-Trimethoxy-quinazolin-4-yl)-piperazine-1-carboxylic acid (4-phenoxy-phenyl)-amide]
